Measured values reported in PubChem BioAssay AID720664 (National Center for Advancing Translational Sciences (NCATS), 2013).
The list shows a part of the results, in another mix than the full data. Some tests of the compounds listed are not included; inactive here does not mean inactive elsewhere. Records with an inconclusive call do not appear. Calls of active or inactive are those of the source. Calls follow the shape of the dose curve; as a rule, active = well fitted inhibition curve with a large enough effect; inconclusive = small, poorly fitted or top-dose-only effect; inactive = flat fitted curve, though single readings scatter.

Amino acid sequences for entries named in this document (tags omitted).
UniProt P51570, whole entry: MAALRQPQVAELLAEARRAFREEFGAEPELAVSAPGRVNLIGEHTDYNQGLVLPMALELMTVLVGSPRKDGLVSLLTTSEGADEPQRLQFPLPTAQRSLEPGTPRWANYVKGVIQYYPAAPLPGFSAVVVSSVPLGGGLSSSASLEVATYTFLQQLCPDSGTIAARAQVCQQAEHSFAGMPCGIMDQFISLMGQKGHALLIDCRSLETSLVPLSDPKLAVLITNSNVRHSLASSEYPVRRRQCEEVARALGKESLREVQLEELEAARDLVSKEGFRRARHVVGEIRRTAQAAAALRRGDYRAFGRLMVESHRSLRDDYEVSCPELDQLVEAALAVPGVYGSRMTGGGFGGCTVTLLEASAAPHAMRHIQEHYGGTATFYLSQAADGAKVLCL

Biological target: Galactokinase (Homo sapiens) (UniProt P51570)
Test: qHTS for Inhibitors of Human Galactokinase (GALK): SAR round 3
Details: ADP detection luminescence, 1 h; at 57.5 µM (top of the series)
Text: Inherited deficiency of galactose-1-phosphate uridyltransferase (GALT) can result in a potentially lethal disorder called Classic Galactosemia (OMIM 230400). Several lines of evidence indicate that an elevated level of galactose-1-phosphate (gal-1-p), the product of galactokinase (GALK), is a major, if not sole, pathogenic mechanism in patients with classic galactosemia. Therefore, finding inhibitors of GALK is a potential novel therapy for this inherent metabolic disease and is the long term goal of this project. Active compounds observed in the qHTS GALK assay (AID: 1868) were cherry picked and re-screened for validation. GALK (provided by Kent Lai) was assayed using ATP and D-(+)-Galactose (Sigma-Aldrich cat# G0750) as substrates. Promega ADP-Glo technology was used to detect the ADP product formed after the kinase reaction. […]
Three uL/well of ATP-buffer solution (35 uM ATP, 20mM HEPES pH8.0, 5 mM MgCl2, 60 mM NaCl, 1 mM DTT, 0.01% BSA final concentration) was dispensed into 1536-well, assay plates (Greiner, solid white medium-binding plates) with Aurora Discovery BioRAPTR Flying Reagent Dispenser (FRD; Beckton-Dickenson). […] Luminescence was detected with the ViewLux plate reader (Perkin Elmer, Waltham, MA) after 2 min incubation using a 1 sec exposure time and 2x binning.

## O=C(C1CCC1)N1CCN(C/C=C/c2ccccc2)CC1
  activity change, negative = inhibition: inactive: 5.22%
